Sequences of proteins named here, by UniProt entry; tags and fusion partners are left off. A change or cut given only in a name is not applied to a line headed by its entry.
UniProt Q12809: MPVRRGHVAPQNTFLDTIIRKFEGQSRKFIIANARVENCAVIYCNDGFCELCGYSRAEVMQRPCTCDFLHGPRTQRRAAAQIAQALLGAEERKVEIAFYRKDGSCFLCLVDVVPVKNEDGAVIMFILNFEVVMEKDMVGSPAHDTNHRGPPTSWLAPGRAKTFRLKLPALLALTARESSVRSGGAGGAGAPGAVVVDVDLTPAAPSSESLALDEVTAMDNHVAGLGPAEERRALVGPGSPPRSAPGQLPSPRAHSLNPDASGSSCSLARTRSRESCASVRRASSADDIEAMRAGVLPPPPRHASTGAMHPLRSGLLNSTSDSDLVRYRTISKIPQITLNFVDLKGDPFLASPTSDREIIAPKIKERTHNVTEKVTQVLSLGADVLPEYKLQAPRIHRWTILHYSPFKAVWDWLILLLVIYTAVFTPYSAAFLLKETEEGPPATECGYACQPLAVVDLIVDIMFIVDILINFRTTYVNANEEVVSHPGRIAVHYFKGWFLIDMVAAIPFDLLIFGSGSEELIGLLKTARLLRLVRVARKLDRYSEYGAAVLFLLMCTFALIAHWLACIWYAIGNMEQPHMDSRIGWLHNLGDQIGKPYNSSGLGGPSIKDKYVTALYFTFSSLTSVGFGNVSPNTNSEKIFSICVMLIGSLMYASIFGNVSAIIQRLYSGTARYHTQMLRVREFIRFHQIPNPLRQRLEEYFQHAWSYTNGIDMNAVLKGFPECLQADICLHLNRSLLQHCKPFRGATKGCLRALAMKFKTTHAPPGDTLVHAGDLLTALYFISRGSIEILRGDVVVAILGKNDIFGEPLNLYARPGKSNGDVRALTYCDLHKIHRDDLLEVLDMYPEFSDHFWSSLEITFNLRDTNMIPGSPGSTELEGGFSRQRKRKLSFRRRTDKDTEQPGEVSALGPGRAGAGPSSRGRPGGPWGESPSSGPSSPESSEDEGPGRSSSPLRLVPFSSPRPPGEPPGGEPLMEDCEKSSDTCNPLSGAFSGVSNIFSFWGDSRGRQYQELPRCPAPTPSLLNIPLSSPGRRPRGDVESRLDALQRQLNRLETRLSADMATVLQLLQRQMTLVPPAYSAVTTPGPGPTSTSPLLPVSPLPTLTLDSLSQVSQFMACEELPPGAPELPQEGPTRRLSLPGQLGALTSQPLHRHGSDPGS

In publication PMC2442905 (2008):

Biological target: hERG potassium channels stably expressed in CHO-K1 cells (Homo sapiens, UniProt Q12809)
Details: pH 7.4

## COc1cc(N)c(Cl)cc1C(=O)NC1CCN(CCCOc2ccc(F)cc2)CC1OC (stereo not shown) [Cisapride]
  Free safety margin (hERG IC50/ free Cmax): 28
